Assay results published in article PMC12109561, “LPS2336, a New TREK-1 Channel Activator Identified by High Throughput Screening” (Biomolecules, 2025).

Protein sequences, listed by entry. Tags and fused reporters are not part of them. Lines headed by an entry give the natural chain unless they say otherwise; changes in a name come on top.
UniProt O95069: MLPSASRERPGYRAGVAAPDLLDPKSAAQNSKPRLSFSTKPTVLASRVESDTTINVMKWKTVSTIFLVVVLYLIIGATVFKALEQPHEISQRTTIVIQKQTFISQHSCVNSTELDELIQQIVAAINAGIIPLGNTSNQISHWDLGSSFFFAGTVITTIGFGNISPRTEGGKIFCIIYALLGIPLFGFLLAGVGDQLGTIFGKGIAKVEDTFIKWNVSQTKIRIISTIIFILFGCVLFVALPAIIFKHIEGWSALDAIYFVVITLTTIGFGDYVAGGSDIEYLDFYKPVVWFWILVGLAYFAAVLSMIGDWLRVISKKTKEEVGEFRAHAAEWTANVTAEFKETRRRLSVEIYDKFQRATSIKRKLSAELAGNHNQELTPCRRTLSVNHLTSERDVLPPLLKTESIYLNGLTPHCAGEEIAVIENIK

Experiments:
[1] = target: T1, hTREK-1 (Homo sapiens, UniProt O95069); test: Whole cell patch clamp on HEK-hTREK-1 cells; type: cell-based; details: 50 µM, vs vehicle
[2] = Aqueous solubility (as observed)
[3] = target: T1, hTREK-1; test: Thallium flux assay (FluxOR II Green) on HEK-hTREK-1 cells, incl. high throughput screening; details: 25 µM

In the case of `COc1ccc(C2Nc3ccccc3C(=O)N2c2ccccc2)cc1O` (stereo not shown), the “increase of mean current density recorded at 0 mV” value [1] is reported as 6.01 fold, the “solubility in water” value [2] is reported as “poorly soluble in water” and the “times over the positivity threshold” value ([3]; HTS triplicates, threshold Z score 3) is reported as 1/3. For the same molecule, the “average Z score in high throughput screening” value ([3]; triplicates, relative to vehicle-treated wells, hit threshold 3) was 2.68 ± 0.49.
